Values of other authors as cited in paper PMC8836281, “Characterisation of Endogenous Peptides Present in Virgin Olive Oil” (International Journal of Molecular Sciences, 2022).

How the values were obtained:
[1] = tested on: ACE; details: C-terminal dipeptide of CPANGFY; read-out: ACE inhibition IC50 range; cited from earlier work
[2] = no reference given; cited from earlier work

For FY: C-terminal dipeptide of CPANGFY, the IC50 [1] is given as 1.65 to 42.6 µM and the “antihypertensive activity in vivo” value [2] is given as “confirmed in vivo for antihypertensive activity”.
